US7399785B2, “N-oxides and derivatives of melphalan for treating diseased states associated with hypoxia inducible factor” (dated 2008)
Like-named read-outs stand apart in the source and are kept apart here.

Columns and labels:
[1] = tested on: MCF-7 human breast cancer cells; experiment: MTT growth inhibition assay, MCF-7; settings: for IC50: read-out: IC50 growth inhibition, 16 h drug, MTT at 72 h
[2] = tested on: HT-29 human colon carcinoma cells; experiment: MTT growth inhibition assay, HT-29; settings: for IC50: read-out: IC50 growth inhibition, 16 h drug, MTT at 72 h
[3] = tested on: HIF-1α mRNA; experiment: HIF-1α mRNA measurement (Northern); settings: any of the cell lines (data not shown)
[4] = tested on: VEGF; experiment: VEGF ELISA in cell lysates and medium; settings: for IC50: 16 h
[5] = tested on: HIF-1α protein; experiment: HIF-1α protein in nuclear extracts by Western blotting
[6] = tested on: HIF-1β; experiment: HIF-1β protein in nuclear extracts by Western blotting; settings: any of the cell lines, 16 h normoxia or hypoxia
[7] = tested on: thioredoxin reductase; experiment: Thioredoxin reductase activity in lysates of treated cells; settings: 10 μM PX-478, 16 h
[8] = tested on: HIF-1α protein; experiment: HIF-1α immunohistochemistry in MCF-7 xenografts in scid mice; settings: 100 mg/kg, 4 h after treatment
[9] = tested on: HIF-1 transactivation; experiment: Hypoxia response element luciferase reporter assay (HIF-1 transactivation)
[10] = MCF-7 and HT-29 (either cell line), normoxia

Compound: N[C@@H](Cc1ccc([N+]([O-])(CCCl)CCCl)cc1)C(=O)O
- ratio of growth inhibition under hypoxia to that in normoxia ([1]; MCF-7 cells): 1.25
- IC50 ([1]; MCF-7, hypoxia (1% oxygen)): 20 µM
- IC50 ([1]; MCF-7, normoxia (20% oxygen)): 25.1 µM
- ratio of growth inhibition under hypoxia to that in normoxia ([2]; HT-29 cells): 1.20
- IC50 ([2]; HT-29, hypoxia (1% oxygen)): 23.9 µM
- IC50 ([2]; HT-29, normoxia (20% oxygen)): 29.5 µM
- effect on HIF-1α mRNA levels [3]: No effect
- levels of VEGF secreted into the medium after treatment ([4]; MCF-7, hypoxia, 10 μM PX-478): decreased to normoxic levels
- effect on VEGF levels in normoxia [4, 10]: did not affect VEGF levels in normoxia
- IC50 ([4]; read-out: IC50 for VEGF in cell lysates, HT-29, hypoxia): 13.5 µM
- IC50 ([4]; read-out: IC50 for VEGF in cell lysates, MCF-7, hypoxia): 17.1 µM
- IC50 ([4]; read-out: IC50 for VEGF secreted into the medium, HT-29, hypoxia): 11.5 µM
- IC50 ([4]; read-out: IC50 for VEGF secreted into the medium, MCF-7, hypoxia): 3.8 µM
- time for HIF-1α protein to return to pre-treatment levels after removal of the drug ([5]; MCF-7, hypoxia, 25 μM PX-478): up to 4 h
- IC50 ([5]; read-out: IC50 inhibition of HIF-1α protein, PC-3 cells, hypoxic conditions): 2.1 µM
- IC50 ([5]; read-out: IC50 inhibition of HIF-1α protein, PC-3 cells, normoxia): 2.5 µM
- IC50 ([5]; read-out: IC50 inhibition of HIF-1α protein, RCC4 cells (lacking VHL), hypoxia, 16 h): 16.9 µM
- IC50 ([5]; read-out: IC50 inhibition of HIF-1α protein, RCC4 cells (lacking VHL), normoxia, 16 h): 5.1 µM
- IC50 ([5]; read-out: IC50 inhibition of hypoxia-induced HIF-1α protein, HT-29, hypoxia (1% oxygen), 16 h): 17.8 µM
- IC50 ([5]; read-out: IC50 inhibition of hypoxia-induced HIF-1α protein, MCF-7, hypoxia (1% oxygen), 16 h): 3.5 µM
- IC50 ([5]; read-out: IC50 inhibition of hypoxia-induced HIF-1α protein, RCC4/VHL cells, hypoxia, 16 h): 18.1 µM
- effect on HIF-1β levels [6]: No effect
- thioredoxin reductase activity after treatment ([7]; hypoxic conditions): below the limit of detection
- decrease of thioredoxin reductase activity ([7]; normoxia, MCF-7 cells (so in the source)): 40%
- levels of HIF-1α (staining intensity) compared to untreated controls [8]: 50%
- effect on HIF-1 transactivation under normoxia [9, 10]: not affected
- effect on HIF-1 transactivation in normoxia ([9]; RCC4/VHL cells, normoxia): did not affect transactivation in normoxia
- IC50 ([9]; read-out: IC50 inhibition of HIF-1 transactivation, RCC4 cells, hypoxia): 10.1 µM
- IC50 ([9]; read-out: IC50 inhibition of HIF-1 transactivation, RCC4 cells, normoxia): 12.5 µM
- IC50 ([9]; read-out: IC50 inhibition of hypoxia-induced HIF-1 transactivation, HT-29, hypoxia (1% oxygen), 16 h): 23.1 µM
- IC50 ([9]; read-out: IC50 inhibition of hypoxia-induced HIF-1 transactivation, MCF-7, hypoxia (1% oxygen), 16 h): 20.5 µM
- IC50 ([9]; read-out: IC50 inhibition of hypoxia-induced HIF-1 transactivation, RCC4/VHL cells, hypoxia): 13.5 µM
